The record followed here is PubChem BioAssay AID631 (The Scripps Research Institute Molecular Screening Center, 2007).

Chains of the proteins cited; added tags and fusions are not shown. Residues count along the entry.
UniProt P37231, 232-505 limits assumed: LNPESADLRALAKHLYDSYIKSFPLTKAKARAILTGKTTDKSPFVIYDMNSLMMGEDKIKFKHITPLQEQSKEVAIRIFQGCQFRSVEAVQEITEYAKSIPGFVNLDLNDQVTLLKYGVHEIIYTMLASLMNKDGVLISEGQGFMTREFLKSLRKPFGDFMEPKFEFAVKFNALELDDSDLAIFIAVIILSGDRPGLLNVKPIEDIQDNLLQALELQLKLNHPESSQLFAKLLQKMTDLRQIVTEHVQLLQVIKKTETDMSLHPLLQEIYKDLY
UniProt Q15788, whole entry partner: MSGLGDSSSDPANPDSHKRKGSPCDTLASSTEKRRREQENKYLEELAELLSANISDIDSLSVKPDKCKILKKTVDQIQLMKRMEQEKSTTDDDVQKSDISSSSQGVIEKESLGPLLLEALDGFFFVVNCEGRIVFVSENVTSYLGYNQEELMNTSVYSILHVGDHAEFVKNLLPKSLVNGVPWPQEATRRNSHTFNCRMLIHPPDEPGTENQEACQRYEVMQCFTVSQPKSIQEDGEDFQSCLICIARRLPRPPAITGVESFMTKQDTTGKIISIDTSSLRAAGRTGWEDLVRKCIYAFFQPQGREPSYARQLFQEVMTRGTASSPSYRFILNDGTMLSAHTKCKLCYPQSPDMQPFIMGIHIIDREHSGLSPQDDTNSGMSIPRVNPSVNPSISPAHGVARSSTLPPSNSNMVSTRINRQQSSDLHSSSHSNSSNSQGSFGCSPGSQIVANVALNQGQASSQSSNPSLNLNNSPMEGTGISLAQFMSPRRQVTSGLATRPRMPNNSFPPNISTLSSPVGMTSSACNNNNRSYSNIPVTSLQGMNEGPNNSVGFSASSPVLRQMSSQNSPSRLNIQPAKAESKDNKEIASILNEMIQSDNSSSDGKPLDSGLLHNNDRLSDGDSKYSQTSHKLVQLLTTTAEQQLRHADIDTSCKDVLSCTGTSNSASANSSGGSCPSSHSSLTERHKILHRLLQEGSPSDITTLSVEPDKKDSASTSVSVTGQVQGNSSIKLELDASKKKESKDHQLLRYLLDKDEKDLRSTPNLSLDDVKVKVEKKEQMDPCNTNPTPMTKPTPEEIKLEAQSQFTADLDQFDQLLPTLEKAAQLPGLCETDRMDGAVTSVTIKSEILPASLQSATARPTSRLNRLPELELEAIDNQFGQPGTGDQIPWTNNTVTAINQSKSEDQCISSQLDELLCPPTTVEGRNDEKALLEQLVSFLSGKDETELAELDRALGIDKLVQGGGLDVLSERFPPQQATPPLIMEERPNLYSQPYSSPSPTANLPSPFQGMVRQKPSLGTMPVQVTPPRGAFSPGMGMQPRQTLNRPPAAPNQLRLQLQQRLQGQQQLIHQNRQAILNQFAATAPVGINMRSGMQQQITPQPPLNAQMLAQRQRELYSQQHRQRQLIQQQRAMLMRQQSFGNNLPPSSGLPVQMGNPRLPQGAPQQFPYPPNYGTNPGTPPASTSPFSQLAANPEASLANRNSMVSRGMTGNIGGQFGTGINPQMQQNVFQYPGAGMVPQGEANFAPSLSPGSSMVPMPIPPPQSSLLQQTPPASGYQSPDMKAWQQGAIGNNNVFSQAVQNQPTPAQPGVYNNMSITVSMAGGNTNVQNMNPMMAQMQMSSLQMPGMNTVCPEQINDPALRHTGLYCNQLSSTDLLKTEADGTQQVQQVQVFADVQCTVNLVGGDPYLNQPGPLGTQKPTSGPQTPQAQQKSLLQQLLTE

Only a part is listed here, and it is no random draw. Calls of active or inactive are those of the source. No stated cut-off is given here; in the data, active means activation above about 19%; inactive means the rest.

For this assay, the target named is Peroxisome proliferator-activated receptor gamma (Homo sapiens) (UniProt P37231). Put plainly: enhancers of SRC-1 binding to PPARgamma – biochemical, primary screen (AID 631).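 Further: 0% = DMSO and 100% = reference agonist.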 To be noted: PPARgamma-SRC-1 coactivator recruitment biochemical assay; at 8 µM; active compounds read high.
Turning to `CN(C)c1ccc(C(=O)NCC2(N3CCCCC3)CCCCC2)cc1`, the activation is inactive: 10.4%.
With `CCN1CCC(Nc2cccc(F)c2)CC1` the figure was inactive: 12.1%; with `CCC(CO)(C(=O)OC1CN2CCC1CC2)c1ccccc1` (stereo not given), inactive: -1.5%.
`COc1cc(OC)cc(C(=O)NCC2(N3CCOCC3)CCCCC2)c1`: the activation is inactive: 3.7%.
Regarding `CC(C)(C)OC(=O)N1CCC(Nc2ccccc2)CC1`, the activation was inactive: 7.2%.
The result for `CCOc1ncccc1C(=O)NCC1(N2CCOCC2)CCCCC1` reads inactive: 5.9%; that for `O=C(OC1CN2CCC1CC2)C1c2ccccc2C=Cc2ccccc21` (stereo not given), inactive: 2.4%; that for `N/C(=N\O)c1c(N)no[n+]1[O-]`, active: 22.2%.
Consider `COc1ccc(C(=O)NCC2(N3CCOCC3)CCCCC2)cc1OC`, for which the activation is inactive: 12%.
Consider `c1ccc(CN2CCC(Nc3ccccc3)CC2)cc1`, for which the activation was inactive: 2.5%.
Take `N#Cc1ccc(C(=O)NCC2(N3CCCCC3)CCCCC2)cc1`: the activation was inactive: -0.8%.
With `CN1CCN(CCOC(=O)C(O)(c2ccccc2)c2ccccc2)CC1` the figure was inactive: 2.7%; with `COc1ccc(NC2CCN(C(=O)OC(C)(C)C)CC2)cc1`, inactive: -5.4%.
With `O=C(NCC1(N2CCOCC2)CCCCC1)c1cc(=O)[nH]c2ccccc12` the figure was inactive: 5.3%.
The result for `O=C(NCC1(N2CCCCC2)CCCCC1)c1cccc([N+](=O)[O-])c1` reads inactive: 6.5%; that for `N#CC1(Nc2ccccc2)CCN(CCc2ccccc2)CC1`, inactive: -0.6%.
For the compound `CN1CCC(Nc2cccc(F)c2)CC1`, the activation was inactive: -1.2%.
Regarding `CN(C)c1cccc(C(=O)NCC2(N3CCCCC3)CCCCC2)c1`, the activation is inactive: -3.4%.
For the compound `COc1ccc(CN(CCCl)CCCl)cc1Cl`, the activation is inactive: -2.7%.
Consider `CC(C)c1ccc(NC2CCN(C(=O)OC(C)(C)C)CC2)cc1`, for which the activation was inactive: -7.9%.
With `CCOC(=O)N1CCC(Nc2ccc(OC)cc2)CC1` the figure was inactive: 0.4%.
With `O=C(OC1CN2CCC1CC2)C1c2ccccc2Oc2ccccc21` (stereo not given) the figure was inactive: -2%.
On to `O=C(NCC1(N2CCOCC2)CCCCC1)c1cc2ccccc2o1`, for which the activation was inactive: -6.5%.
The result for `COc1ccc(C(=O)NCC2(N3CCCCC3)CCCCC2)c(OC)c1OC` reads inactive: 9.5%; that for `COc1ccc(NC2CCN(CCc3ccccc3)CC2)c(OC)c1`, inactive: 10.3%.
